Each block holds one compound with its values, some of them ahead of it.
Tests used:
[1] = biological target: Adenosine receptor A1 (Mus musculus) (UniProt Q60612); test: Agonist activity at mouse A1A adenosine receptor at 10 uM after 60 mins by [35S]GTPgammaS binding assay relative to (2S,3S,4R,5R)-5-(6-amino-9H-purin-9-yl)-N-ethyl-3,4-dihydroxytetrahydrofuran-2-carboxamide; assay type: functional
Adenosine receptor A2a = Adenosine receptor A2a (Mus musculus, UniProt Q60613); test: Displacement of [3H]2-[p-(2-carboxyethyl)phenylethylamino]-5-N-ethylcarboxamidoadenosine from mouse A2A adenosine receptor expressed in HEK293 cell membranes after 60 mins by scintillation proximity assay
Adenosine receptor A3 [2] = biological target: T1, Adenosine receptor A3 (Mus musculus, UniProt Q61618); test: Displacement of [125I]N6-(4-amino-3-iodobenzyl)adenosine-5-N-methyluronamide from mouse A3A adenosine receptor expressed in CHO cell membranes after 60 mins by scintillation proximity assay
T1 sequence (Q61618 whole entry): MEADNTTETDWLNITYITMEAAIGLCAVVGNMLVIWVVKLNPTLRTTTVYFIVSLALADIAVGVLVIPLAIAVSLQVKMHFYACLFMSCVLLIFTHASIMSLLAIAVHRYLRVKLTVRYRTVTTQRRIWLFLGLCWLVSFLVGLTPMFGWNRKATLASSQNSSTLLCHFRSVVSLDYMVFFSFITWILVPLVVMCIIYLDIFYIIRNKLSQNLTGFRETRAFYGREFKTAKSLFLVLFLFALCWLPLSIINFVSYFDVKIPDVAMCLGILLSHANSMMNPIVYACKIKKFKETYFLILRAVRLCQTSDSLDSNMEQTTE

By UniProt entry, the sequences of proteins in these tests, tags left out.
UniProt Q60612, whole entry: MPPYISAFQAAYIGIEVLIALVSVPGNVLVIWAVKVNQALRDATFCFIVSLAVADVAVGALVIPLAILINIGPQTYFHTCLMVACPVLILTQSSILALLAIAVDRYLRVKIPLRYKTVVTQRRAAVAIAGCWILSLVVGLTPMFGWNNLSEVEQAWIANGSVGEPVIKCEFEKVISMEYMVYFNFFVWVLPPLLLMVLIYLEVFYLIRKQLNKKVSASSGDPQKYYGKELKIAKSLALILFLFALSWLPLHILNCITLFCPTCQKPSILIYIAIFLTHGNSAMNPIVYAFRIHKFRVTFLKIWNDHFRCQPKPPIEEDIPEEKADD
UniProt Q60613, whole entry: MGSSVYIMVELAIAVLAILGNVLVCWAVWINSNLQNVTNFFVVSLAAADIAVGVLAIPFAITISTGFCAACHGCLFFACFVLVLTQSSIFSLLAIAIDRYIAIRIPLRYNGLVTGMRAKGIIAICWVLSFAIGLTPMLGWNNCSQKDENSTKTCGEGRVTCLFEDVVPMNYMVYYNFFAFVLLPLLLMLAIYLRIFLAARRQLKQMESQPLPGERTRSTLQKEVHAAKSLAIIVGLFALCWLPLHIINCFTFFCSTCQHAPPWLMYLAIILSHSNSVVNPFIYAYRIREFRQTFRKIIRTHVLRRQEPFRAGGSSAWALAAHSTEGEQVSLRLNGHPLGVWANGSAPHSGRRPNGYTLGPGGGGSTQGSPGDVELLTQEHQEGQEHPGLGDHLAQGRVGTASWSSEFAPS
UniProt P0DMS8, whole entry: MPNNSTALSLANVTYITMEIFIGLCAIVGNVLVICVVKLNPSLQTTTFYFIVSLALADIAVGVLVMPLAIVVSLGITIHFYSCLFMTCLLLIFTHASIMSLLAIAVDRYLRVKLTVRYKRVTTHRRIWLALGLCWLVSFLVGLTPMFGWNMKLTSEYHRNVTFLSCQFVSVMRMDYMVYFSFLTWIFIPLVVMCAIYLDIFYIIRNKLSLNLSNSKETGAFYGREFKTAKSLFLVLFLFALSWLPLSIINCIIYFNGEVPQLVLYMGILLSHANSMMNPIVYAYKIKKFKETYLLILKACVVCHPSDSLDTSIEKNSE
UniProt P30536, whole entry: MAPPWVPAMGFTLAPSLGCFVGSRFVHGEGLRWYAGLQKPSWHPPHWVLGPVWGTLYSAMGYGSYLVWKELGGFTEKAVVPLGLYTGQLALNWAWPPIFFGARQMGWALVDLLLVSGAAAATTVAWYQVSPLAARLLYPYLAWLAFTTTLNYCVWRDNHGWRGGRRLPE

Adenosine receptor A3 [3] = biological target: Adenosine receptor A3 (Homo sapiens, UniProt P0DMS8); details: 10 uM
[4] = biological target: Adenosine receptor A2a (Mus musculus) (UniProt Q60613); test: Displacement of [3H]2-[p-(2-carboxyethyl)phenylethylamino]-5-N-ethylcarboxamidoadenosine from mouse A2A adenosine receptor expressed in HEK293 cell membranes at 10 uM after 60 mins by scintillation proximity assay relative to adenosine 5-N-ethyluronamide
Translocator protein = Translocator protein (Homo sapiens, UniProt P30536); test: Inhibition of TSPO (unknown origin)

Emax [1]: 101%
SMILES: OC[C@H]1O[C@@H](n2cnc3c(NC(C4CCC4)C4CCC4)ncnc32)[C@H](O)[C@@H]1O

SMILES: O[C@@H]1[C@H](O)[C@@H](CCl)O[C@H]1n1cnc2c(NC3C[C@H]4CC[C@@H]3C4)ncnc21 (mixture of isomers)
Ki (Adenosine receptor A2a): 3990 nM

Ki (Adenosine receptor A3 [2]): 1060 nM
Emax (Adenosine receptor A3 [3]): 50%
inhibition [4]: 34%
SMILES: O[C@@H]1[C@H](O)[C@@H]2C[C@@H]2[C@H]1n1cnc2c(NC(C3CC3)C3CC3)nc(Cl)nc21

SMILES: CCOC(=O)[C@@]12C[C@@H]1[C@@H](n1cnc3c(NC(C4CC4)C4CC4)nc(Cl)nc31)[C@H](O)[C@@H]2O
Ki (Translocator protein): 2500 nM
